Results on one molecule are retold here after US7964629B2, “Inhibitors of isoprenylcysteine carboxyl methyltransferase” (Duke Universtiy, priority 2005, dated 2011).

Protein sequences, listed by entry. Tags and fused reporters are not part of them.
UniProt O60725, whole entry, looked up: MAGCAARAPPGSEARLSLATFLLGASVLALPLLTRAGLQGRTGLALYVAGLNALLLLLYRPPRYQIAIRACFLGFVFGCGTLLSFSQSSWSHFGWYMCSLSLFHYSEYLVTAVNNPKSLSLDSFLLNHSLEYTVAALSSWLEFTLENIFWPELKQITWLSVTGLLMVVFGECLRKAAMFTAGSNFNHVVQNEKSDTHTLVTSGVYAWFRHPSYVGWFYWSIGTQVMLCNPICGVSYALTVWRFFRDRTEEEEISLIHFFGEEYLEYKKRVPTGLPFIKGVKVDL

For this test, the target named is recombinant human Icmt (Homo sapiens, UniProt O60725). The test can be described thus: Icmt assay: [3H]methyl incorporation from [3H]AdoMet into BFC. It is filed as biochemical. To be noted: Table 2, no pre-incubation.

What is called IC50 is the midpoint of a concentration-inhibition curve. Take `CCCCCCn1cc(CC=O)c2cc(-c3ccccc3OC)ccc21`: the IC50 was above 30 µM.
